Assay results as given in PubChem BioAssay (EPA / NIEHS).
The entries are a selection whose mix differs from that of the whole data set. Activity calls are given as the source filed them. Rule for the calls: active = hit-call score of the fitted dose curve at least 0.9, where 1 is the maximum; inactive = score below 0.9.

Experiments:
[1] = APR_HepG2_CellLoss_72hr: Apredica 72-hour HepG2 Assay for Cell Loss (AID 2282915); conditions: high-content imaging
Description: APR_HepG2_72hr is a cell-based, multiplexed-readout assay that uses HepG2, a human liver cell line, with measurements taken at 72 hours after chemical dosing in a 384-well plate.APR_HepG2_CellLoss_72hr is one of 10 assay component(s) measured or calculated from the APR_HepG2_72hr assay. It is designed to make measurements of cell number, a form of viability reporter, as detected with fluorescence intensity signals by HCS Fluorescent Imaging technology.Data from the assay component APR_HepG2_CellLoss_72hr was analyzed into 1 assay endpoint. This assay endpoint, APR_HepG2_CellLoss_72hr, was analyzed with bidirectional fitting relative to DMSO as the negative control and baseline of activity. […] Furthermore, this assay endpoint can be referred to as a secondary readout, because this assay has produced multiple assay endpoints where this one serves a viability function. […]
Cells were treated with dimethyl sulfoxide (DMSO) as a solvent control at a final concentration of 0.5% v/v or with compounds in DMSO with a resulting final DMSO concentration of 0.5% v/v. […] Six digital images were captured in each well and analyzed using BioApplication software, which was provided with the instrument. All images were analyzed using the Compartmental Analysis and Cell Cycle Analysis BioApplication software from Cellomics. […]

[2] = APR_HepG2_P-H2AX_72hr: Apredica 72-hour HepG2 Assay for H2AX Phosphorylation (AID 2282916); conditions: imaging, actives raise or lower the signal;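 note: phospho-histone H2A.x immunostain intensity per cell marking DNA damage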
Outline: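 Readout: phospho-H2A.x immunofluorescence (FITC secondary) plus Hoechst nuclear stain, high-content imaging at 20x, six fields/well. HepG2, 72 hr compound exposure, 0.39–200 uM, final DMSO 0.5% v/v. Gain or loss fitted relative to DMSO baseline.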

[3] = APR_HepG2_MitoMembPot_72hr: Apredica 72-hour HepG2 Assay for Mitochondrial Membrane Potential (AID 2282917); conditions: imaging, actives raise or lower the signal
Outline: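 HepG2 cells exposed 72 h to compounds at 0.39–200 uM (0.5% v/v DMSO, duplicates); MitoTracker Red CMXRos 250 nM loaded 30 min before 3.7% formaldehyde fixation, imaged by HCS fluorescence. Bidirectional fit versus DMSO.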

[4] = APR_HepG2_MitoticArrest_72hr: Apredica 72-hour HepG2 Assay for Mitotic Arrest (AID 2282918); conditions: high-content imaging, actives raise or lower the signal
Outline: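 High-content imaging of fixed human HepG2 cells after 72 h compound exposure (0.39–200 uM, duplicates, 0.5% DMSO); mitotic arrest scored from phospho-histone H3 and nuclear Hoechst staining relative to DMSO.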

[5] = APR_HepG2_MicrotubuleCSK_72hr: Apredica 72-hour HepG2 Assay for Microtubule CSK Stabilty (AID 2282919); conditions: HepG2 microtubule cytoskeleton, high-content imaging, actives raise or lower the signal
Outline: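 Ten-point dosing (0.39–200 uM, 0.5% DMSO) of HepG2 for 72 hr, with taxol as the cytoskeletal positive control. The cells were formaldehyde-fixed and then stained with alpha-tubulin/Cy5 and Hoechst. Imaging at 20x used a −2 um Z offset for tubulin.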

[6] = APR_HepG2_P-H2AX_24hr: Apredica 24-hour HepG2 Assay for H2AX Phosphorylation (AID 2282920); conditions: high-content imaging, actives raise or lower the signal
Description: APR_HepG2_24hr is a cell-based, multiplexed-readout assay that uses HepG2, a human liver cell line, with measurements taken at 24 hours after chemical dosing in a 384-well plate.APR_HepG2_P-H2AX_24hr is one of 10 assay component(s) measured or calculated from the APR_HepG2_24hr assay. It is designed to make measurements of dna content, a form of viability reporter, as detected with fluorescence intensity signals by HCS Fluorescent Imaging technology.Data from the assay component APR_HepG2_P-H2AX_24hr was analyzed into 1 assay endpoint. This assay endpoint, APR_HepG2_P-H2AX_24hr, was analyzed with bidirectional fitting relative to DMSO as the negative control and baseline of activity. Using a type of viability reporter, measures of protein for gain or loss-of-signal activity can be used to understand the signaling at the pathway-level as they relate to the gene . Furthermore, this assay endpoint can be referred to as a primary readout, because this assay has produced multiple assay endpoints where this one serves a signaling function. To generalize the intended target to other relatable targets, this assay endpoint is annotated to the dna binding intended target family, where the subfamily is cellular response to DNA damage stimulus. […]

[7] = APR_HepG2_StressKinase_72hr: Apredica 72-hour HepG2 Assay for Stress Kinase (AID 2282921); conditions: HepG2 stress kinase (phospho-c-Jun) imaging, actives raise or lower the signal
Description: (§1) APR_HepG2_72hr is a cell-based, multiplexed-readout assay that uses HepG2, a human liver cell line, with measurements taken at 72 hours after chemical dosing in a 384-well plate.APR_HepG2_StressKinase_72hr is one of 10 assay component(s) measured or calculated from the APR_HepG2_72hr assay. It is designed to make measurements of enzyme activity, a form of enzyme reporter, as detected with fluorescence intensity signals by HCS Fluorescent Imaging technology.Data from the assay component APR_HepG2_StressKinase_72hr was analyzed into 1 assay endpoint. This assay endpoint, APR_HepG2_StressKinase_72hr, was analyzed with bidirectional fitting relative to DMSO as the negative control and baseline of activity. Using a type of enzyme reporter, measures of protein for gain or loss-of-signal activity can be used to understand the signaling at the pathway-level as they relate to the gene . Furthermore, this assay endpoint can be referred to as a primary readout, because this assay has produced multiple assay endpoints where this one serves a signaling function. To generalize the intended target to other relatable targets, this assay endpoint is annotated to the cell cycle intended target family, where the subfamily is stress response. […]

[8] = APR_HepG2_StressKinase_24hr: Apredica 24-hour HepG2 Assay for Stress Kinase (AID 2282922); conditions: HepG2 stress kinase (phospho-c-Jun) imaging, actives raise or lower the signal
Description: as §1, with “APR_HepG2_24hr” for “APR_HepG2_72hr”, “24” for “72”, “plate.APR_HepG2_StressKinase_24hr” for “plate.APR_HepG2_StressKinase_72hr”, “APR_HepG2_StressKinase_24hr” for “APR_HepG2_StressKinase_72hr”, “APR_HepG2_StressKinase_24hr,” for “APR_HepG2_StressKinase_72hr,”

[9] = APR_HepG2_p53Act_72hr: Apredica 72-hour HepG2 Assay for p53 Activation (AID 2282923); conditions: high-content imaging, actives raise or lower the signal;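 note: average cellular p53 protein immunofluorescence intensity in HepG2 cells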
Outline: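 Readout: p53 immunofluorescence quantified by automated high-content imaging at 20x, six fields per well, nuclei located via Hoechst. Dosing ran 72 hr over ten concentrations from 0.39 to 200 uM; bidirectional curve fitting against DMSO baseline.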

[10] = APR_HepG2_MitoMass_72hr: Apredica 72-hour HepG2 Assay for Mitochondrial Mass (AID 2282924); conditions: high-content imaging, actives raise or lower the signal;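 note: MitoTracker Red CMXRos stain intensity per cell imaged as mitochondrial mass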
Outline: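 Steps: treat HepG2 72 hr (0.39–200 uM, duplicate wells); load MitoTracker Red CMXRos, 250 nM, 30 min; fix with 3.7% formaldehyde, permeabilise with 0.5% Triton X-100; capture images, nuclei via Hoechst 33342; fit bidirectionally against DMSO.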

Measured: AC50

O=[N+]([O-])c1ccccc1[N+](=O)[O-]
active: [1] 58.9 µM | [2] 65.6 µM | [4] 59.8 µM | [6] 56.8 µM | [7] 65.9 µM | [9] 44.1 µM
inactive: [3] | [5] | [8] | [10]
